Test results: ChEMBL document CHEMBL6120995, “Orvinol-based opioid receptor antagonist fluorinated at C(20)-pharmacophore” (2025)

Test: Toxicity in male Swiss mouse assessed as effect on locomotor activity at 0.1 to 10 mg/kg, sc measured after 30 mins by tail-flick test
Conditions: in vivo, 0.5 h

Compound: C=CCN1CC[C@]23c4c5ccc(O)c4O[C@H]2[C@@]2(O)CC[C@@]3(C[C@@H]2[C@](C)(O)C(F)(F)F)[C@H]1C5
- Activity: Non-toxic
